FGF22 binding = binders of recombinant human FGF22 by thermal shift; SYPRO orange fluorescence; percent of sucrose octasulfate shift, DMSO zero; activity (Tm shift, normalised), % at 9.99 µM; 340,000 tested, 1.5% active; AID 651658;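 active = mean Tm shift, scaled 0 neutral to 100 positive control, at about 1.3% or above, every replicate too, limit read from the data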
PDI turbidity = blocks human protein disulfide isomerase activity. PDI insulin aggregation turbidity, A650, 90 min. inhibition, % at 10 µM. 350,000 tested, 0.052% active. AID 588391;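 active = mean inhibition across replicates of 30% or more, whatever share of single replicates reach that level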
UUG fidelity = modulators of start codon recognition fidelity in yeast; S. cerevisiae UUG-firefly luciferase reporter, luminescence/redox ratio; activity score, % at 18.7 µM; 0.13% of 350,000 active;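 active = replicate mean at a twofold rise or more, about +100% in these data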;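 also: firefly luciferase made from a UUG start codon reports start codon fidelity; reporter light over untreated wells divided by growth signal over untreated wells; some hits fall short of that in this replicate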
PglD inh = blocks C. jejuni PglD acetyltransferase activity | purified PglD enzyme, DTNB colorimetric CoA detection | inhibition, % at 12.5 µM | 360,000 tested, 0.098% active | AID 602405; in the data active = inhibition above about 16%, passing the limit was not always enough
ERp5 inh = inhibitors of human ERp5; Q15084; ERp5 insulin aggregation, absorbance 650 nm, 90 min; inhibition, % at 9.99 µM; 350,000 tested, 0.05% active;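 active = mean replicate inhibition above about 25%, with every replicate also reaching it, limit read from the data, passing the limit was not always enough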
ARNT TACC3 PPI = disruptors of human ARNT/TACC3 interaction; Q9Y6A5; AlphaScreen His-ARNT PAS-B/GST-TACC3 binding, luminescence; TACC3 fragment carries E629A point mutation; inhibition, % at 9.99 µM; 390,000 tested, 0.66% active;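 active = mean inhibition of replicates at least 50% and at least half of replicates each reaching 50%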
Large screens that a line does not name were inactive. Compounds with a hit are over-represented: about 1.9% of the library has one in this group of screens.

Cc1ccc(S(=O)(=O)Nc2ccc3c(c2)C(=O)N([C@@H](C)CO)C[C@H](C)[C@@H](CN(C)S(=O)(=O)c2ccc(Cl)cc2)OCCCC[C@@H](C)O3)cc1	FGF22 binding 28 (no result: PDI turbidity, ERp5 inh)
Cc1ccc(S(=O)(=O)N(C)C[C@H]2OCCCC[C@@H](C)Oc3ccc(NS(=O)(=O)c4ccc(Cl)cc4)cc3C(=O)N([C@@H](C)CO)C[C@H]2C)cc1	none (no result: PDI turbidity)
C[C@@H]1CN([C@@H](C)CO)C(=O)Cc2cc(NC(=O)CCCN(C)C)ccc2O[C@H]1CN(C)CC1CCCCC1	none (no result: PDI turbidity)
C/C(=N\NC(=O)CCCNc1ccc(C)cc1)c1ccccn1	ARNT TACC3 PPI 48 (no result: UUG fidelity, PglD inh)
C/C(=N\NC(=O)c1c[nH]c2ccccc12)c1ccco1	none
C/C(=N\NC(=O)c1c[nH]c2ccccc12)c1ccccn1	ARNT TACC3 PPI 77 (no result: UUG fidelity, PglD inh)
C/C(=N\NC(=O)c1cc2ccccc2cc1O)c1ccccn1	ARNT TACC3 PPI 69
C[C@@H]1CN([C@@H](C)CO)C(=O)c2cc(NS(=O)(=O)c3ccccc3)ccc2O[C@@H]1CN(C)Cc1ccc2c(c1)OCO2	none (no result: PDI turbidity)
COC(=O)CC/C(=N/Nc1ccc(Cl)c(Cl)c1)C(=O)OC	FGF22 binding 43 (no result: UUG fidelity, PglD inh)
COC(=O)CCC(=O)Nc1ccc(NC(C)=O)cc1	none (no result: FGF22 binding, ERp5 inh)
CCCNC(=O)N1CC2(C1)[C@H](c1ccccc1)[C@H](CO)N2C(=O)C1CC1	none (no result: PDI turbidity, UUG fidelity, PglD inh, ARNT TACC3 PPI)
Cc1ccc(S(=O)(=O)Oc2ccccc2-c2ccccc2)cc1	FGF22 binding 43
Cc1ccc(S(=O)(=O)Oc2ccccc2)cc1	none (no result: UUG fidelity, PglD inh)
COc1ccc(S(=O)(=O)N(C)C[C@H]2OCCCC[C@H](C)Oc3ccc(NS(C)(=O)=O)cc3C(=O)N([C@@H](C)CO)C[C@H]2C)cc1	none (no result: PDI turbidity)
CCC(=O)N(C)C[C@H]1Oc2cc(C#CCOC)ccc2S(=O)(=O)N([C@H](C)CO)C[C@@H]1C	none (no result: PDI turbidity)
Clc1ccc(-c2cc(COc3ccccc3)on2)cc1	FGF22 binding 43 (no result: ARNT TACC3 PPI)
Clc1ccc(OCc2cc(-c3ccccc3)no2)cc1Cl	none (no result: UUG fidelity, PglD inh)
CC[C@]12c3[nH]c4cc(-c5ccco5)ccc4c3CCN1C(=O)[C@@H](CC(=O)NCc1ccc(OC)c(OC)c1)C[C@@H]2C(=O)N1CCN(C(=O)C2CC2)CC1	PDI turbidity 37
Cc1c(/C=N/NC(=O)c2cccnc2)cc(C#N)n1C	FGF22 binding 43 (no result: UUG fidelity, PglD inh)
Cc1ccc(Cn2nc(C)c(/C=N/NC(=O)c3cccnc3)c2C)cc1	FGF22 binding 43 (no result: UUG fidelity, PglD inh)
CN1CCN(c2ccccc2/C=N/NC(=O)c2cccnc2)CC1	none (no result: UUG fidelity, PglD inh)
O=C(NCCC1=CCCCC1)C(=O)NCC1OCCCN1S(=O)(=O)c1cc(F)ccc1F (centres undefined)	none
O=C(NCCC1=CCCCC1)C(=O)NCC1OCCCN1S(=O)(=O)c1ccc(F)cc1 (centres undefined)	FGF22 binding 44 (no result: ARNT TACC3 PPI)
CO[C@@H]1CN(C)C(=O)c2ccc(NC(=O)C3CC3)cc2OC[C@H](C)NC[C@H]1C	none (no result: PDI turbidity)
CO[C@@H]1CN(C)C(=O)c2cc(NC(=O)C3CC3)ccc2OC[C@@H](C)N(Cc2ccccc2C(=O)O)C[C@H]1C	none (no result: PDI turbidity, UUG fidelity)
CNS(=O)(=O)c1ccc2nc(NC(=O)/C=C/c3ccco3)sc2c1	FGF22 binding 43 (no result: UUG fidelity, PglD inh, ARNT TACC3 PPI)
Cc1nc(NC(=O)/C=C/c2ccco2)sc1C	none (no result: UUG fidelity, PglD inh)
CCC(=O)N1C[C@H](C)[C@H](OC)CN(C)C(=O)c2cc(NC(=O)NC3CCCC3)ccc2OC[C@@H]1C	none (no result: PDI turbidity, UUG fidelity, PglD inh, ERp5 inh, ARNT TACC3 PPI)
Cc1noc(C)c1NC(=O)Nc1ccc2c(c1)CC(=O)N([C@@H](C)CO)C[C@@H](C)[C@@H](CN(C)C)O2	none (no result: PDI turbidity)
O=C1NC(c2ccccc2)=CC(c2ccccc2)N1 (centres undefined)	FGF22 binding 44 (no result: PglD inh)
O=C1NC(c2ccccc2)=CC(c2ccccc2O)N1 (centres undefined)	none
CCS(=O)(=O)NCC[C@@H]1CC[C@@H](NC(=O)C2CCC2)[C@H](CO)O1	none (no result: PDI turbidity)
Cc1c(CC(=O)N[C@@H](C)C(=O)O)c(=O)oc2cc3occ(-c4ccccc4)c3cc12	ARNT TACC3 PPI 48 (no result: UUG fidelity, PglD inh)
Cc1c(CC(=O)O)c(=O)oc2c(C)c3occ(-c4ccc(F)cc4)c3cc12	none
Cc1c(CC(=O)N[C@@H](C)C(=O)O)c(=O)oc2c(C)c3occ(-c4ccccc4)c3cc12	ARNT TACC3 PPI 76 (no result: FGF22 binding)
Cc1c(CC(=O)O)c(=O)oc2cc3occ(-c4ccccc4)c3cc12	none
COc1ccc(-c2coc3c(C)c4oc(=O)c(CCC(=O)O)c(C)c4cc23)cc1	PDI turbidity 52 (no result: FGF22 binding, ERp5 inh)
CCOc1ccccc1NC(=O)CCS(=O)(=O)c1ccc(OC)cc1	FGF22 binding 44 (no result: UUG fidelity, PglD inh)
COc1ccc(CC(=O)Nc2ccccc2Oc2ccccc2)cc1	FGF22 binding 43 (no result: PDI turbidity, UUG fidelity, PglD inh, ARNT TACC3 PPI)
C[C@@H]1CN([C@@H](C)CO)C(=O)c2cc(NS(=O)(=O)c3ccc(Cl)cc3)ccc2O[C@@H](C)CCCCO[C@H]1CN(C)Cc1ccc(C(=O)O)cc1	none (no result: PDI turbidity)
c1ccc(-c2cc3c(N4CCN(c5ncccn5)CC4)ncnc3s2)cc1	FGF22 binding 44 (no result: UUG fidelity, PglD inh)
CC(=O)N(C)C[C@H]1Oc2cc(-c3cccnc3)ccc2S(=O)(=O)N([C@@H](C)CO)C[C@H]1C	none (no result: PDI turbidity)
C[C@H]1CN([C@@H](C)CO)C(=O)c2cccc(NC(=O)NC3CCCCC3)c2O[C@@H]1CN(C)CC1CCCCC1	none (no result: PDI turbidity)
Cc1ccc2c(c1)sc(=NC(=O)c1cccs1)n2C	FGF22 binding 43 (no result: UUG fidelity, PglD inh, ARNT TACC3 PPI)
O=C(c1cc2cc([N+](=O)[O-])ccc2oc1=O)N1CCOCC1	FGF22 binding 43 (no result: UUG fidelity, PglD inh)
O=C(c1cc([N+](=O)[O-])ccc1N1CCOCC1)N1CCN(c2ccc([N+](=O)[O-])cc2)CC1	PDI turbidity 36 (no result: FGF22 binding, ARNT TACC3 PPI)
O=C(COC(=O)c1ccc(Cl)nc1)NCCNC(=O)COC(=O)c1ccc(Cl)nc1	none
CC(C)(C)NC(=O)COC(=O)c1ccc(Cl)nc1	FGF22 binding 43
COCc1cc(CN2CCCC(CNC(=O)c3ccc(F)cc3)C2)ccc1OC (centres undefined)	none (no result: UUG fidelity, PglD inh)
COc1cccc(CN2CCCC(CNC(=O)c3ccc(F)cc3)C2)c1OC (centres undefined)	FGF22 binding 43 (no result: UUG fidelity, PglD inh, ARNT TACC3 PPI)
CC(C)(C)OC(=O)NCc1ccc(CNC(=O)c2[nH]cnc2C(=O)N[C@@H](Cc2ccccc2)C(=O)OC(C)(C)C)cc1	FGF22 binding 12
CN1CCn2cnc(C(=O)NCc3ccc(CNC(=O)OC(C)(C)C)cc3)c2C1=O	none (no result: PDI turbidity, ARNT TACC3 PPI)
CN1CCn2cnc(C(=O)N[C@@H](Cc3ccccc3)C(=O)OC(C)(C)C)c2C1=O	FGF22 binding 44 (no result: ARNT TACC3 PPI)
CCCNC(=O)[C@H]1[C@H](CO)[C@H]2Cn3c(ccc(C4=CCCC4)c3=O)[C@@H]1N2C(=O)CC	none (no result: PDI turbidity, UUG fidelity)
CC(C)Oc1ccc(C2CC(=O)N(c3cccc(/C=C/C(=O)O)c3)C2=O)cc1 (centres undefined)	ARNT TACC3 PPI active
Cc1ccc(C(=O)N/C(=C/c2ccccc2F)C(=O)NCCCn2ccnc2)cc1	none
COc1ccc(/C=C(/NC(=O)c2ccccc2)C(=O)NCCCn2ccnc2)cc1OC	none

High-throughput results as filed in PubChem BioAssay.
